According to PubChem BioAssay AID504558 (Broad Institute, 2011):
The entries are a selection whose mix differs from that of the whole data set. Some of these compounds have results that are not shown, active ones among them. Calls of active or inactive are those of the source. Cut-off read from the data, not from the text of the source: active = inhibition above about 41%; inconclusive = no clear call, values can overlap the other calls; inactive = below that.

Test: EBV LMP1-driven NF-kappaB luciferase reporter inhibitors, primary screen, cell-based, luminescence, single point (AID 504558);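 note: 0% = neutral control wells and 100% = reference inhibitor control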
Conditions: LMP1-induced NF-kappaB luciferase reporter cells, at 12.5 µM, active compounds read high

| Structure (SMILES) | inhibition |
| --- | --- |
| COc1cc(C(=O)NCC2(N(C)C)CCCCC2)c([N+](=O)[O-])cc1OC | inactive: 6.88% |
| CN(C)C1(CNC(=O)c2ccc(Br)cc2)CCCCC1 | inactive: 8.86% |
| O=C(NCC1(N2CCCCC2)CCCCC1)c1cccc(Cl)c1 | inactive: -26.2% |
| COc1cccc(C(=O)NCC2(N3CCCCC3)CCCCC2)c1 | inactive: -14.1% |
| COc1ccc(Cl)cc1C(=O)NCC1(N(C)C)CCCCC1 | inactive: 5.38% |
| O=C(OC1CN2CCC1CC2)C(CO)(c1ccccc1)c1ccccc1 (stereo unspecified) | inactive: -6.23% |
| CN(C)c1cccc(C(=O)NCC2(N(C)C)CCCCC2)c1 | inactive: -9.83% |
| CC(C)Oc1ccc(C(=O)NCC2(N(C)C)CCCCC2)cc1 | inactive: -7.53% |
| O=C(OCCN1CCCC1)C(O)(c1ccccc1)c1ccccc1 | inactive: -1.44% |
| COc1ccc(Br)c(C(=O)NCC2(N3CCCCC3)CCCCC2)c1 | inactive: 0.338% |
| C=C(C)C#CC(O)(C(=O)OC1CCN(C)CC1)c1ccccc1 (stereo unspecified) | inactive: 5.97% |
| CN1[C@@H]2CC[C@H]1CC(OC(=O)C(O)(c1ccccc1)c1ccccc1)C2 (stereo partly specified) | inactive: -0.534% |
| O=C(NCC1(N2CCCCC2)CCCCC1)c1cc([N+](=O)[O-])ccc1Cl | inactive: -5.81% |
| Cc1ccc(C(=O)NCC2(N3CCCCC3)CCCCC2)cc1 | inactive: -20% |
| CC(C)N1C(=O)CC2(CCN(CCOC(=O)C(O)(c3ccccc3)c3ccccc3)CC2)C1=O | inactive: 5.98% |
| CCN(CC)CC(C)C(C)OC(=O)C(O)(c1ccccc1)c1ccccc1 (stereo unspecified) | inactive: 2.24% |
| COc1cc(SC)ccc1C(=O)NCC1(N(C)C)CCCCC1 | inactive: -3.59% |
| Cc1ccccc1C(=O)NCC1(N2CCCCC2)CCCCC1 | inactive: 2.93% |
| CN(C)C1CCCC1OC(=O)C(O)(c1ccccc1)c1ccccc1 (stereo unspecified) | inactive: 4.49% |
| CN(C)c1ccc(C(=O)NCC2(N(C)C)CCCCC2)cc1 | inactive: -1.5% |
| Cc1cc(C(=O)NCC2(N3CCCCC3)CCCCC2)ccc1[N+](=O)[O-] | inactive: -41.9% |
| CCN1CCCC(OC(=O)C2(O)c3ccccc3C=Cc3ccccc32)C1 (stereo unspecified) | inactive: -4.69% |
| O=C(NCC1(N2CCCCC2)CCCCC1)c1cccc(Br)c1 | inactive: -40.7% |
| COc1ccc(C(=O)NCC2(N(C)C)CCCCC2)cc1 | inactive: 6.23% |
| C=CCN1CCN(CCOC(=O)C(O)(c2ccccc2)c2ccccc2)CC1 | inactive: -1.53% |
| O=C(NCC1(N2CCCCC2)CCCCC1)c1cc(F)c(F)cc1Cl | inactive: -2.37% |
